These results are taken from patent US20240207270A1, “COMPOUNDS AND COMPOSITIONS FOR MODULATING LIPID METABOLISM” (WaveBreak Inc., priority 2021, published 2024).

The test system of this assay is Cells expressing PABPC1-DDR2. To be noted: inhibitor final concentration 100 μM for 1 h; Bodipy-C12 1 μM; starvation; confocal microscopy; endogenously tagged PABPC1 HEK293T cell line.

For the compound `N#CC(=C(/N)Sc1ccccc1N)/C(C#N)=C(\N)Sc1ccccc1N` [Compound U-0126], the “Score (lipid effects, LD formation)” value is 0.
